According to PubChem BioAssay AID686979 (National Center for Advancing Translational Sciences (NCATS), 2013):
This is a selection; strong and weak results do not stand in their true shares. Some tests of the compounds listed are not included; inactive here does not mean inactive elsewhere. Records with an inconclusive call do not appear. Where a call stands in place of a potency, no number is given. Calls of active or inactive are those of the source. The call rests on the fitted dose curve; in most records, active means well fitted inhibition curve with a large enough effect; inconclusive means small, poorly fitted or top-dose-only effect; inactive means flat fitted curve, though single readings scatter.

Test: qHTS for Inhibitors of human tyrosyl-DNA phosphodiesterase 1 (TDP1): qHTS in cells in presence of CPT; further: nearly all actives have a fitted effect of over 55% in size
Settings: chicken DT40 Tdp1-/-;hTDP1 cells + 20 nM CPT, ATP luminescence, 48 h; series mostly up to 46.2 µM
Potency means the concentration at half of the fitted maximal effect.

| Structure (SMILES) | Potency |
| --- | --- |
| CN(C)C1(CNC(=O)c2ccc(Br)cc2)CCCCC1 | inactive |
| COc1cc(C(=O)NCC2(N(C)C)CCCCC2)c([N+](=O)[O-])cc1OC | inactive |
| COc1ccc(C(=O)NCC2(N(C)C)CCCCC2)cc1Cl | inactive |
| COc1cccc(C(=O)NCC2(N3CCCCC3)CCCCC2)c1 | inactive |
| COc1ccc(Cl)cc1C(=O)NCC1(N(C)C)CCCCC1 | inactive |
| O=C(OC1CN2CCC1CC2)C(CO)(c1ccccc1)c1ccccc1 (stereo not drawn) | inactive |
| CC(C)COc1ccc(C(=O)NCC2(N(C)C)CCCCC2)cc1 | active: 20.6 µM |
| Cc1cccc(C(=O)NCC2(N(C)C)CCCCC2)c1 | inactive |
| COc1cc(C(=O)NCC2(N(C)C)CCCCC2)cc(OC)c1OC | inactive |
| C=C(C)C#CC(O)(C(=O)OC1CCN(C)CC1)c1ccccc1 (stereo not drawn) | inactive |
| CN(C)c1cccc(C(=O)NCC2(N(C)C)CCCCC2)c1 | inactive |
| CC(C)Oc1ccc(C(=O)NCC2(N(C)C)CCCCC2)cc1 | inactive |
| O=C(NCC1(N2CCCCC2)CCCCC1)c1cc([N+](=O)[O-])ccc1Cl | inactive |
| CN1[C@@H]2CC[C@H]1CC(OC(=O)C(O)(c1ccccc1)c1ccccc1)C2 (stereo partly drawn) | inactive |
| CC(C)N1C(=O)CC2(CCN(CCOC(=O)C(O)(c3ccccc3)c3ccccc3)CC2)C1=O | inactive |
| CCN(CC)CC(C)C(C)OC(=O)C(O)(c1ccccc1)c1ccccc1 (stereo not drawn) | inactive |
| CN(C)C1(CNC(=O)c2cccc(Cl)c2)CCCCC1 | inactive |
| COc1cc(SC)ccc1C(=O)NCC1(N(C)C)CCCCC1 | inactive |
| Cc1ccc(C(=O)NCC2(N3CCCCC3)CCCCC2)cc1 | inactive |
| Cc1ccccc1C(=O)NCC1(N2CCCCC2)CCCCC1 | inactive |
| CN(C)c1ccc(C(=O)NCC2(N(C)C)CCCCC2)cc1 | inactive |
| CN1CCCC(OC(=O)C(O)(c2ccccc2)c2ccccc2)C1 (stereo not drawn) | inactive |
| C=CCN1CCN(CCOC(=O)C(O)(c2ccccc2)c2ccccc2)CC1 | inactive |
| O=C(NCC1(N2CCCCC2)CCCCC1)c1cc(F)c(F)cc1Cl | inactive |
| Cc1cc(C(=O)NCC2(N3CCCCC3)CCCCC2)ccc1[N+](=O)[O-] | inactive |
| CCN1CCCC(OC(=O)C2(O)c3ccccc3C=Cc3ccccc32)C1 (stereo not drawn) | inactive |
| O=C(NCC1(N2CCCCC2)CCCCC1)c1cccc(Br)c1 | inactive |
| COc1ccc(C(=O)NCC2(N(C)C)CCCCC2)cc1 | inactive |
